This data set deals with E15.5 rat cortex. The following applies: after ICV injection at E15.5, n=4/group; no difference to vehicle (P>0.05). The text has this:
For BrdU immunohistochemistry, E15.5 and E18.5 tissues were fixed in 4% PFA, paraffin-embedded, and sectioned (4 μm) coronally. E20.5 tissues were perfusion-fixed in 2% PFA, cryoprotected, and sectioned at 15 μm. The tissues were immunostained. Then, the tissues were double-labeled with antibodies to neuron specific markers TuJ1 (1:200, Biogenesis, Poole, United Kingdom), tau (1:200, I. Fischer, Med. Coll. Penn.) and MAP2c (1:2000, I. Fischer) or glial markers, vimentin (1:4, Roche) and GFAP (1:1000, Sigma), visualizing with Texas Red for BrdU and FITC for phenotypic markers. TUNEL assay was done according to the manufacturer (Oncor, Gaithersburg, Md.) on sections adjacent to those used for BrdU.
Transuterine intracerebroventricular injection. Intraventricular injection was done as described. Following anesthesia (ketamine 30 mg per kg/xylazine 3 mg per kg) and laparotomy of E15.5 pregnant dams, 1 μl of vehicle or factors and 0.05% fast green was delivered into the embryonic lateral ventricle through the uterine wall, using drawn capillary pipettes. Dye enhancement of the ventricles indicated successful injections. After closure, dams were injected subcutaneously with markers of DNA synthesis, [^3H]dT (4 μCi/g, NEN) and BrdU (100 μg/g) at 3 h and sacrificed at 4 h. One embryonic hemisphere was assayed for [^3H]dT incorporation and the other for immunohistochemistry.

For the substance “Pituitary Adenylate Cyclase-Activating Polypeptide [PACAP]”, the TUNEL apoptotic nuclei was determined as 0.2±0.1 nuclei/section.

The values are drawn from patent publication US20070149439A1, “Pituitary adenylate cyclase-activating polypeptide (PACAP) is an anti-mitogenic signal for selected neuronal precursors in vivo” (priority 2001, published 2007).
